The values that follow come from patent US20130295185A1, “COMPOUNDS AND METHODS FOR INDUCING APOPTOSIS IN CANCER CELLS USING A BH3 ALPHA-HELICAL MIMETIC” (H. Lee Moffitt Cancer Center and Research Institute, Inc., priority 2011, published 2013).

Chains of the proteins cited; added tags and fusions are not shown.
UniProt Q07817, whole entry: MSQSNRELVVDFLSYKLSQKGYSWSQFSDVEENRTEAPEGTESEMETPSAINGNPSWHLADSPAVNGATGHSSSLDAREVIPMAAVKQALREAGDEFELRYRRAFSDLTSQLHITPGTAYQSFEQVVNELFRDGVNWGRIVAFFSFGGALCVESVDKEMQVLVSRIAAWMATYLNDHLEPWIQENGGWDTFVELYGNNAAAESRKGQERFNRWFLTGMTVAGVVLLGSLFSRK

Experiment [1] concerns the target Bcl-XL binding to Bax and Bim (Homo sapiens, UniProt Q07817). Nature of the experiment: GST pull-down, GST-Bcl-XL with Bax and Bim from cell lysates. The following applies: HEK293T and A549 cell lysates; 0, 50, 100 μM BH3-M6 or 100 μM TPC; tested form: diammonium salt (as drawn, CO2NH4). The text has this: FIG. 2 is a series of images illustrating that BH3-M6, but not TPC, inhibits the binding of anti-apoptotic proteins to pro-apoptotic proteins in vitro. (A) a series of graphs illustrating that BH3-M6 blocks the binding of Bak BH3 α-helix to Bcl-XL (left) or Bim BH3 α-helix to Mcl-1 (right) as measured by fluorescence polarization assay, black circles: BH3-M6, open triangles: TPC. (B) BH3-M6 inhibits the interaction of Bcl-XL or Mcl-1 with Bax and Bim as measured by GST pull-down assay. Purified GST, GST-Bcl-XL and GST-Mcl-1 fusion proteins immobilized on glutathione-Sepharose beads were incubated for 1 h with 0, 50 and 100 μM BH3-M6 or 100 μM TPC, followed by addition of cell extracts from HEK293T or A549 cells for 1 h. Proteins associated with beads were eluted and analyzed by Western blotting with Bax and Bim antibodies.
Whole cell lysates of HEK293T and A549 cells were prepared using NP-40 lysis buffer (see above). […]
The inventors next determined whether in lysates from HEK293T or A549 cells, BH3-M6 was able to disrupt the interaction between full-length Bax and Bim to full-length Bcl-XL and Mcl-1, respectively, in GST pull-down assays.

The test system of experiment [2] is MDA-MB-468 cells expressing Bcl-XL/Bim, Bcl-2/Bim, Mcl-1/Bim. Nature of the experiment: Caspase-3/-7, TUNEL and PARP cleavage in MDA-MB-468 cells expressing Bcl-XL/Bim, Bcl-2/Bim, Mcl-1/Bim. The note with it: 24 h, tested form: diammonium salt (as drawn, CO2NH4). Here is the method: FIG. 6 is a series of images illustrating BH3-M6 induces apoptosis in a Bcl-2-, Bcl-XL-, and Mcl-1-dependent manner. BH3-M6 induces caspase-3/-7 activities and apoptosis in Bcl-XL/Bim, Bcl-2/Bim and Mcl-1/Bim overexpressing cells. MDA-MB-468 cells transfected with Bcl-XL-IRES-BimEL, Bcl-2-IRES-BimEL, and Mcl-1-IRES-BimEL were grown in 100-mm plates and treated with 0, 25, 50, or 100 μM BH3-M6 or 100 μM of TPC for 24 h at 37° C. Cells were then harvested and lysed using 0.2% NP-40 lysis buffer (without protease and phosphatase inhibitors for cell-free caspase assay and with protease and phosphatase inhibitors for Western blot analysis). (A) Caspase-3/-7 activity was determined by incubating whole-cell extracts with caspase-3/-7 substrate and measuring free AMCs (left panel), apoptosis was quantified by TUNEL assay (middle panel), gray: TPC, black: BH3-M6. BimEL, Bcl-XL, Bcl-2 and Mcl-1 expression levels were determined by Western blotting (right panel). (B) PARP cleavage by Western blotting. (C) Expression levels of different anti- and pro-apoptotic proteins in DU-145 and LNCaP cells as determined by Western blotting. (D) BH3-M6 induces apoptosis in LNCaP human prostate cancer cells expressing Bax, but not in DU-145 human prostate cancer cells lacking detectable Bax expression. LNCaP and DU-145 cells were treated with 0, 25 and 50 μM of BH3-M6 or 50 μM of TPC for 24 h. Cells were lysed and subjected to Western blot analysis. (E) Depletion of Bax, but not Bak by siRNA renders LNCaP cells resistant to apoptosis. LNCaP cells were transfected with 10 nM Bax or Bak siRNA or control siRNA for 48 h, followed by 24 h treatment with or without 25 or 50 μM BH3-M6. Cells were lysed and subjected to Western blot analysis with the indicated antibodies.
Release of cytochrome c from isolated mitochondria was measured as described by Takahashi et al. (Takahashi, Y., Karbowski, M., Yamaguchi, H., Kazi, A., Wu, J., Sebti, S. M., Youle, R. J., and Wang, H. G. (2005) Mol Cell Biol 25, 9369-9382) Cell-free caspase-3/-7 activity and the extent of PARP cleavage was determined as described previously. […]

For `CC(C)Cc1cc(-c2ccc(-c3ccc(CCC(=O)O)cc3CC(C)C)cc2Cc2ccccc2)ccc1OCC(=O)O`, in experiment [1], the “inhibition of the binding of Bcl-XL to Bax and Bim” value is listed as “dose-dependent inhibition”. In experiment [2], the “apoptosis induction by TUNEL assay” value is listed as 7 to 12 fold and the “apoptosis induction by caspase-3/-7 activation assay” value is 8- to 10 fold. In addition, the PARP cleavage result in experiment [2] (three cell lines) is given as “induced PARP cleavage”.
